Reference: ChEMBL document CHEMBL5727463, “Oligomer-opioid agonist conjugates” (2019)

Protein sequences, listed by entry. Tags and fused reporters are not part of them.
UniProt P41143, whole entry: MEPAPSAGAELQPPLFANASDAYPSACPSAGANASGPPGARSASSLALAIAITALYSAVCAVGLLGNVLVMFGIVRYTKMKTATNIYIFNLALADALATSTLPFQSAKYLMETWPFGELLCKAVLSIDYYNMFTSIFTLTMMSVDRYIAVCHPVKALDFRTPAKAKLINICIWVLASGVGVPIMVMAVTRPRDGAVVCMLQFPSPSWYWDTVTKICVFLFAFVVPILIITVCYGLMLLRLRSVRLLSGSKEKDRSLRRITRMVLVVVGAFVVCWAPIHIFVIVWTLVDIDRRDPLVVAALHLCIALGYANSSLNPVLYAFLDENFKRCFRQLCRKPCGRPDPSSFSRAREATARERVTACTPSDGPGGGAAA

Molecular target: Delta-type opioid receptor (Homo sapiens, UniProt P41143)
Assay: Cells were plated in 24 well plates at a density of 0.2-0.3*10^6 cells/well and washed with assay buffer containing 50 mM Tris.HCl and 5 mM MgCl2 (pH 7.4). […] Incubations were carried out for two hours at room temperature using triplicate wells at each concentration. […] Binding data assays were analyzed using GraphPad Prism 4.0 and IC50 is generated by non-linear regression from dose-response curves. Ki values were calculated using the Cheng Prusoff equation using the Kd values from saturation isotherms as follows: Ki=IC50/(1+[Ligand]/Kd).
Format: cell-based

COCCOCCOCCOCCOCCOCCOCCOCCOCCO[C@H]1CC[C@@]2(O)[C@H]3Cc4ccc(O)c5c4[C@@]2(CCN3CC2CCC2)[C@H]1O5
pKi: 6.80

pKi: −log10 of the molar value.
